In patent publication US7910091B2, “System for trapping flying insects with attractant lures” (Woodstream Corporation, priority 2002, dated 2011):

Assays:
mosquitoes = test: Hawaii field test of lactic acid lures in Mosquito Magnet traps, total mosquito catch; format: in vivo, Culex quinquefasciatus Aedes albopictus, et al.
Method: (§1) […] Sample vials containing lactic acid impregnated frits were replaced every 2 days to ensure measurement uniformity. Measured release rates were approximately 4.0 mg/hr to 20 mg/hr. Controls were run with a Professional trap device lacking a lactic acid lure. The number of mosquitoes retained in the catch bag of the insect trapping devices was quantitated for test sample and control runs.
(§2) The comparison between lactic acid/CO2 and CO2 only used as lures in Mosquito Magnet® Professional (PRO) and Liberty traps are shown in Table 8.

A. albopictus = test: Hawaii field test of lactic acid lures in Mosquito Magnet traps, A. albopictus catch; format: in vivo, Aedes albopictus
Method: as §1, §2

[1] = cited from earlier work
[2] = Liberty trap, February to March 2002
[3] = PRO trap, February to March 2002
[4] = PRO trap, January 2002, higher release rate
[5] = PRO trap, January 2002, listed as Liquid lactic acid

Row | SMILES | Ratio (lactic acid/CO2), total catch of mosquitoes (mosquitoes; [2]) | Ratio (lactic acid/CO2), total catch of mosquitoes (mosquitoes; [3]) | Ratio (lactic acid/Octenol), total catch of mosquitoes (mosquitoes; [3]) | Ratio (lactic acid/CO2), total catch of mosquitoes (mosquitoes; PRO trap, January 2002) | Ratio (lactic acid/CO2), total catch of mosquitoes (mosquitoes; [4]) | Ratio (lactic acid/CO2), catch of A. Albopictus (A. albopictus; [2]) | Ratio (lactic acid/CO2), catch of A. Albopictus (A. albopictus; [3]) | Ratio (lactic acid/Octenol), catch of A. Albopictus (A. albopictus; [3]) | Ratio (lactic acid/CO2), catch of A. Albopictus (A. albopictus; PRO trap, January 2002) | Ratio (lactic acid/CO2), catch of A. Albopictus (A. albopictus; [4]) | Ratio (lactic acid/CO2), total catch of mosquitoes (mosquitoes; [5]) | LD50/oral/mouse [1] | Ratio (lactic acid/CO2), catch of A. Albopictus (A. albopictus; [5])
1 | CC(O)C(=O)O (stereo not shown) [Solid lactic acid] | 1.6 | 52 | 2.6 | 0.8 | 1.6 | 12.7 | 7 | 4.1 | 6.4 | 5.8 | – | – | –
2 | CC(O)C(=O)O (stereo not drawn) [FCC 88, L(+)-lactic acid, 2-hydroxy-propionic acid] | – | – | – | – | – | – | – | – | – | – | 2.0 | 4875 mg/kg | 5.8
